The record followed here is PubChem BioAssay AID485341 (National Center for Advancing Translational Sciences (NCATS), 2010).

Amino acid sequences for entries named in this document (tags omitted).
UniProt P00811, whole entry: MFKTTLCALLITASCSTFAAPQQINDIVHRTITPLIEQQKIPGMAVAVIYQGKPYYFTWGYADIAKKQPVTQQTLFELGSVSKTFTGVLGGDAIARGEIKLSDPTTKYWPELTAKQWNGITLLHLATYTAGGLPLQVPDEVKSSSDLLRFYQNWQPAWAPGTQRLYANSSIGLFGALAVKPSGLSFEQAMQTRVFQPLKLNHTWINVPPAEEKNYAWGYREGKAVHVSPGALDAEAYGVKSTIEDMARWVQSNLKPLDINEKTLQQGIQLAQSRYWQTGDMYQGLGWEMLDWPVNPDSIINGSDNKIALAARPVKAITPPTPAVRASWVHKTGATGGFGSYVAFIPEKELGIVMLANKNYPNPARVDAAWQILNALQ

The list shows a part of the results, in another mix than the full data. The source made the active and inactive calls. Calls follow the shape of the dose curve; as a rule, active = well fitted inhibition curve with a large enough effect; inconclusive = small, poorly fitted or top-dose-only effect; inactive = no such curve, though single readings can be large or run the other way.

The experiment deals with Beta-lactamase (Escherichia coli (strain K12)) (UniProt P00811). The experiment can be described thus: qHTS Inhibitors of AmpC Beta-Lactamase (assay without detergent). Also: nearly all actives have a fitted effect of over 20% in size. Conditions: AmpC nitrocefin hydrolysis, absorbance 480 nm, 0.0001% Triton; at 57.1 µM (top of the series). As to the method:
NIH Molecular Libraries Probe Production Network [MLPCN] NIH Chemical Genomics Center [NCGC] Assay Provider: Professor Brian Shoichet, UCSF Assay Overview: This aggregation profiling approach exploits the sensitivity of aggregate formation to detergent. Inhibition of b-lactamase is measured in the presence and absence of 0.01% Triton X-100. This particular assay had the prescence of 0.01% Triton X-100. See Pubchem assay "Promiscuous and Specific Inhibitors of AmpC Beta-Lactamase (assay without detergent)" for related screen. Compounds that inhibit only in the absence of detergent are considered likely promiscuous aggregators. A screen of 1,030 compounds was performed in Brian Shoichet's lab in 96-well format. AmpC activity was measured by following the absorbance at 480 nm. Nitrocefin is a chromogenic substrate: while nitrocefin is yellow (lmax 390 nm), the product of its hydrolysis is red (lmax 486 nm, 17,000 M-1). AmpC beta lactamase was provided by Shoichet Lab, UCSF.
Buffer: 20 mM phosphate buffer, pH 7.0 Triton X-100: No Detergent screen: 0.0001%, Detergent screen: 0.01%. Reagents/Controls: Buffer in columns 3 and 4 as negative control (no enzyme). 5.3 nM AmpC in columns 1, 2, 5-48. […] The plates were immediately transferred to and read every 20 seconds for 4 min on ViewLux (Perkin-Elmer) High-throughput CCD imager using 480 nm absorbance protocol. […]
Background: In qHTS, concentration-response curves come from the screen itself.
On to `CCC(=O)N(c1ccccc1)C1(COC)CCN(CCn2nnn(CC)c2=O)CC1`, for which the activity change, negative = inhibition is inactive: 22.4%. Next, `CCC(=O)N(c1ccccc1)C1(COC)CCN(CCc2cccs2)CC1`: inactive: 20.7%.
